From the supplement of paper PMC11403291

Chains of the proteins cited; added tags and fusions are not shown. Lines headed by an entry give the natural chain unless they say otherwise; changes in a name come on top.
UniProt Q14680: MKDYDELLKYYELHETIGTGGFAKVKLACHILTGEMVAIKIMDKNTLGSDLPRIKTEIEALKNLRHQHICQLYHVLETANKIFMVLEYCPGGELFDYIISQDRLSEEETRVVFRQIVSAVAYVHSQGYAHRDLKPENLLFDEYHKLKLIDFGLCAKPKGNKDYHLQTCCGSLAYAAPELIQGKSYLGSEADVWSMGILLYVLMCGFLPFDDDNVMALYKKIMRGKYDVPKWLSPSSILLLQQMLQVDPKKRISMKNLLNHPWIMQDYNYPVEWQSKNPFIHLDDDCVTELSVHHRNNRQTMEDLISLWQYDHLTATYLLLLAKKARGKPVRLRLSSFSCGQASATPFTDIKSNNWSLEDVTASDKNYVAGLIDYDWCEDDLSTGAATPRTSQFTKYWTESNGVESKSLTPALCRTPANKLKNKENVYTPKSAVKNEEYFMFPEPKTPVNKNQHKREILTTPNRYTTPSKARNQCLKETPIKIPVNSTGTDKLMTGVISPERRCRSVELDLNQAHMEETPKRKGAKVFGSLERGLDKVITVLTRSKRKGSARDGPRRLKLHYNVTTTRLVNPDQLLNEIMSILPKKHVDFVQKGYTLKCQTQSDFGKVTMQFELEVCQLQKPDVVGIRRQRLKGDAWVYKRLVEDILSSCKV
UniProt Q9HBH9: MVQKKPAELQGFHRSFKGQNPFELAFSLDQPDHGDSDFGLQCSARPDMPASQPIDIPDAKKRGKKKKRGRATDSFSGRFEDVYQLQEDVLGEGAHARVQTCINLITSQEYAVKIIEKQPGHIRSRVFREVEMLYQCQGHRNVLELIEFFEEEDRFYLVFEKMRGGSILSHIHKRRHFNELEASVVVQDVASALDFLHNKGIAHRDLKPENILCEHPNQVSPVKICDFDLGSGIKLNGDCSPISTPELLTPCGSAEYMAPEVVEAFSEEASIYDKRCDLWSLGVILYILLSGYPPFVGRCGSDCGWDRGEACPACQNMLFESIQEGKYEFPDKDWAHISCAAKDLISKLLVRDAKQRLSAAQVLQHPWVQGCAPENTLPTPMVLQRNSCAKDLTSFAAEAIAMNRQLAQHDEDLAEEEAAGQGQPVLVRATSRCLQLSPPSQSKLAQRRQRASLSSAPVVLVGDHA
UniProt O43683: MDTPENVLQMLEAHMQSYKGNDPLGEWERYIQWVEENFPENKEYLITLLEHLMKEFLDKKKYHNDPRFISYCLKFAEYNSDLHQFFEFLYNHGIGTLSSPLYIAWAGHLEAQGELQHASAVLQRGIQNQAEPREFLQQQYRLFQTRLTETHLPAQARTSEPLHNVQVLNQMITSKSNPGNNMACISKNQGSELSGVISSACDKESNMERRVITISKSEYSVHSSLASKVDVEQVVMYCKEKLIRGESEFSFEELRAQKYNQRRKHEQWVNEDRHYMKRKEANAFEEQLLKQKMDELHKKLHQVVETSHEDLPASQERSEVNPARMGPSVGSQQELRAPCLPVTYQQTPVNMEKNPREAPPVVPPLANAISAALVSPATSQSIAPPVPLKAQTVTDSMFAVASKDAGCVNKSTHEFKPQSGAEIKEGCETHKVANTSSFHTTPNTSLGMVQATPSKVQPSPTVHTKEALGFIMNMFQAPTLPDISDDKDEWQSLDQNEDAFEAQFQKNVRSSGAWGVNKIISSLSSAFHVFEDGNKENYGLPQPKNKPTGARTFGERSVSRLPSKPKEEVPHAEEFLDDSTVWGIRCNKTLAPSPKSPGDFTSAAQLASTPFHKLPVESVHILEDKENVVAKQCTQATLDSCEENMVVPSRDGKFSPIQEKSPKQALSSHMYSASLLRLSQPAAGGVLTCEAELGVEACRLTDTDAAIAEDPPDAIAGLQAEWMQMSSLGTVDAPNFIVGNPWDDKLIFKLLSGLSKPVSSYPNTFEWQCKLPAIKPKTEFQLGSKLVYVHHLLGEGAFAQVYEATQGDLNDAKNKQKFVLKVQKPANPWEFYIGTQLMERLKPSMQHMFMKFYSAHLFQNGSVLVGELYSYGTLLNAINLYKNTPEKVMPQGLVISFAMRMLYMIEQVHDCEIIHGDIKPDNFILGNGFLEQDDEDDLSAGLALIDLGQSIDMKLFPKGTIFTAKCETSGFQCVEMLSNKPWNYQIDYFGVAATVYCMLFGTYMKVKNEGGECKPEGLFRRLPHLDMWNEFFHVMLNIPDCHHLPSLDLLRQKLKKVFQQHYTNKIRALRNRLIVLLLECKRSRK
UniProt Q13131: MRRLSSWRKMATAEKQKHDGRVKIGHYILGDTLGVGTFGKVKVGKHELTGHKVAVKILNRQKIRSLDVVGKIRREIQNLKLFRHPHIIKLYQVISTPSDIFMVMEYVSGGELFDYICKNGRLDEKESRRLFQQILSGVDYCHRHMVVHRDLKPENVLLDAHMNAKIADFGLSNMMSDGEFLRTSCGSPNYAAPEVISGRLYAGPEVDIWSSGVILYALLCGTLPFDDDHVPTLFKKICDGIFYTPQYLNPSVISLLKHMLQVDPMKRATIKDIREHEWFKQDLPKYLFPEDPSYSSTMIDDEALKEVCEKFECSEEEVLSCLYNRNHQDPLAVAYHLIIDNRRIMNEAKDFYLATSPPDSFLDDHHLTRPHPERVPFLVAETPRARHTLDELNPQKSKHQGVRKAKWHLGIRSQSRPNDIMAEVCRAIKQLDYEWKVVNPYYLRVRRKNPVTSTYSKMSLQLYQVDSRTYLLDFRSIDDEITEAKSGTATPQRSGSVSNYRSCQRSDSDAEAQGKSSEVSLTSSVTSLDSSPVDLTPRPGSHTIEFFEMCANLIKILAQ

What was measured:
Assay in all cases: apparent dissociation constant pKd app (kinobead competition) (-log10(M)); higher = stronger binding
MELK = MELK (UniProt Q14680)
MARK2 = biological target: T1, MARK2 (UniProt Q7KZI7)
T1 sequence (whole entry): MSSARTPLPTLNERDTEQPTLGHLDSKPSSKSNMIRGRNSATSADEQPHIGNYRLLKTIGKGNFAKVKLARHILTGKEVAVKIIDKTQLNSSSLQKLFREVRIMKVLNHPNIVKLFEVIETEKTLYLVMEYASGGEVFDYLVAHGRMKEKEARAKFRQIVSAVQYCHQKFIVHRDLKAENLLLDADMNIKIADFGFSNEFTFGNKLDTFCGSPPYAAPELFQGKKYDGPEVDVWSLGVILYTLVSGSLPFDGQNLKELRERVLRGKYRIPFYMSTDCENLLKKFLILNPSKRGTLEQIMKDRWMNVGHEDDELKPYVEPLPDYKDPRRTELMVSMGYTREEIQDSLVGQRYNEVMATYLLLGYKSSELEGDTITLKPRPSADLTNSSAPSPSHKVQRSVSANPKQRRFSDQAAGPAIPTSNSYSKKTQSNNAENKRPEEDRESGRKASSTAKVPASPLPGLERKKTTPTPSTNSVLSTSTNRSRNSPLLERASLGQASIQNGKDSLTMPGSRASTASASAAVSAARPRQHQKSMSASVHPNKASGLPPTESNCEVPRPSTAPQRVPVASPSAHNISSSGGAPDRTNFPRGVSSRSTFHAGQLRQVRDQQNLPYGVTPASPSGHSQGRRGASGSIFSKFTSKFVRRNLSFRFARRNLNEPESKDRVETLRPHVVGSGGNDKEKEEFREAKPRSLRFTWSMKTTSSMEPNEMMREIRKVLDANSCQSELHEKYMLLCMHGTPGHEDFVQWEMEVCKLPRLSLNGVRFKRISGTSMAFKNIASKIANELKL

MKNK2 = MKNK2 (UniProt Q9HBH9)
BUB1 = BUB1 (UniProt O43683)
PRKAA1 = PRKAA1 (UniProt Q13131)
EPHB2 = biological target: T2, EPHB2 (UniProt P29323)
T2 sequence (whole entry): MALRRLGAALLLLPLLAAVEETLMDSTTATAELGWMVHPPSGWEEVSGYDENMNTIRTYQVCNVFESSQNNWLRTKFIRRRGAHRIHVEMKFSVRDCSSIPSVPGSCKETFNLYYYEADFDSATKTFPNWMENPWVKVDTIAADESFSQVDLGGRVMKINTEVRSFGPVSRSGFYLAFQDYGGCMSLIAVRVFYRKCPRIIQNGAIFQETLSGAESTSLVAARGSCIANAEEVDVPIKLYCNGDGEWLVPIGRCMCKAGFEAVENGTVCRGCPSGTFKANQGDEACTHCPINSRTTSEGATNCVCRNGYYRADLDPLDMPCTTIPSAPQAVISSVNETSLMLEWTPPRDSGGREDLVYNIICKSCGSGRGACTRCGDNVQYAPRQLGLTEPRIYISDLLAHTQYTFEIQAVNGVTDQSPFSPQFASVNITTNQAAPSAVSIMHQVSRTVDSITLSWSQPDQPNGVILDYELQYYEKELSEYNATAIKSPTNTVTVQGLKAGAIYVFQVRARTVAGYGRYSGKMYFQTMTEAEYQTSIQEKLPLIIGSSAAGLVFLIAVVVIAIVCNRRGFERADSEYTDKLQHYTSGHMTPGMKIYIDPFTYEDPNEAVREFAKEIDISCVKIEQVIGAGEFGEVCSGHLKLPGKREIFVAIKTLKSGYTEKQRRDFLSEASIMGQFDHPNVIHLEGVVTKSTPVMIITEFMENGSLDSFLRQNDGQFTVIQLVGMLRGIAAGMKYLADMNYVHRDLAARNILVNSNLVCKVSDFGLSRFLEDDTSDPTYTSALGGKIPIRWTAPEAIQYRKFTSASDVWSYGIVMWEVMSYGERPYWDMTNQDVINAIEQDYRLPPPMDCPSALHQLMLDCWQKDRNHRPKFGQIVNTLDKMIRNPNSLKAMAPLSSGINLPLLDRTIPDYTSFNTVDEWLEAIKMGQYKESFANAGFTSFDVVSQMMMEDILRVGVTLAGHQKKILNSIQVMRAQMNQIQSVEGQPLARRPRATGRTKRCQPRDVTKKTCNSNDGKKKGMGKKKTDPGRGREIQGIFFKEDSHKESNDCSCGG

PRKD2 = biological target: T3, PRKD2 (UniProt Q9BZL6)
T3 sequence (whole entry): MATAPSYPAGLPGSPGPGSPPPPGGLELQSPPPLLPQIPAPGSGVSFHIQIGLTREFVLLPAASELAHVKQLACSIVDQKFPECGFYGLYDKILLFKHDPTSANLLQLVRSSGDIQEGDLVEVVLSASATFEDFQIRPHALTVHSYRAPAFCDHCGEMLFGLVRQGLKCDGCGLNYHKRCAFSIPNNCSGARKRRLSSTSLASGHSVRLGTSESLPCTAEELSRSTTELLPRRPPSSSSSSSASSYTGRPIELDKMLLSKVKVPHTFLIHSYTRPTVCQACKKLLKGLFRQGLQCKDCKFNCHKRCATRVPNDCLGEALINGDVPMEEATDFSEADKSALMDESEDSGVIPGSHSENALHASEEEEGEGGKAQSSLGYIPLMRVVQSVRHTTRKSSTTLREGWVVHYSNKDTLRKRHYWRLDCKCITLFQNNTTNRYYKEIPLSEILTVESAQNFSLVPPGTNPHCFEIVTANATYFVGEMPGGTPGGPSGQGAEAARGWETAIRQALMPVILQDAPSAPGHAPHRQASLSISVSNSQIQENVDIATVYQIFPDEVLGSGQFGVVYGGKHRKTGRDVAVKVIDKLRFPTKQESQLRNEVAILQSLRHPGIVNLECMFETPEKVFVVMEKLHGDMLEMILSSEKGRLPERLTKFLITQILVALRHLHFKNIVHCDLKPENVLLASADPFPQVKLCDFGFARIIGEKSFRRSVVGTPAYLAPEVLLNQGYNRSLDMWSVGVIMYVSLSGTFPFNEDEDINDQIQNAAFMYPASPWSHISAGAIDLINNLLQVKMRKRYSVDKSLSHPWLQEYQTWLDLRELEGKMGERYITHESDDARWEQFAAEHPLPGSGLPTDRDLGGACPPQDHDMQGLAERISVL

apparent dissociation constant pKd app (-log10) (MELK) | apparent dissociation constant pKd app (-log10) (MARK2) | apparent dissociation constant pKd app (-log10) (MKNK2) | apparent dissociation constant pKd app (-log10) (BUB1) | apparent dissociation constant pKd app (-log10) (PRKAA1) | apparent dissociation constant pKd app (-log10) (EPHB2) | apparent dissociation constant pKd app (-log10) (PRKD2) | SMILES
< 4.7 | < 4.6 | < 4.6 | < 4.7 | < 4.8 | < 4.6 | < 4.6 | NC(=O)c1cccc2cn(-c3ccc([C@@H]4CCCNC4)cc3)nc12 [Niraparib]
< 4.7 | < 4.6 | < 4.6 | < 4.7 | < 4.8 | < 4.6 | < 4.6 | O=C(c1cc(Cc2n[nH]c(=O)c3ccccc23)ccc1F)N1CCN(C(=O)C2CC2)CC1 [Olaparib]
< 4.7 | < 4.6 | < 4.6 | < 4.7 | < 4.8 | < 4.6 | < 4.6 | Cn1ncnc1[C@H]1c2n[nH]c(=O)c3cc(F)cc(c23)N[C@@H]1c1ccc(F)cc1 [Talazoparib]
